# Measured values reported in ChEMBL document CHEMBL1123413, “Synthesis and biological evaluation of 1-(1,2-benzisothiazol-3-yl)- and (1,2-benzisoxazol-3-yl)piperazine derivatives as potential antipsychotic agents” (J Med Chem, 1986).
# The chains behind the UniProt entries cited, without tags or fusion partners. Where a name states a change or a piece, a line headed by the entry shows the natural chain unless it says otherwise.
# UniProt P31390, whole entry: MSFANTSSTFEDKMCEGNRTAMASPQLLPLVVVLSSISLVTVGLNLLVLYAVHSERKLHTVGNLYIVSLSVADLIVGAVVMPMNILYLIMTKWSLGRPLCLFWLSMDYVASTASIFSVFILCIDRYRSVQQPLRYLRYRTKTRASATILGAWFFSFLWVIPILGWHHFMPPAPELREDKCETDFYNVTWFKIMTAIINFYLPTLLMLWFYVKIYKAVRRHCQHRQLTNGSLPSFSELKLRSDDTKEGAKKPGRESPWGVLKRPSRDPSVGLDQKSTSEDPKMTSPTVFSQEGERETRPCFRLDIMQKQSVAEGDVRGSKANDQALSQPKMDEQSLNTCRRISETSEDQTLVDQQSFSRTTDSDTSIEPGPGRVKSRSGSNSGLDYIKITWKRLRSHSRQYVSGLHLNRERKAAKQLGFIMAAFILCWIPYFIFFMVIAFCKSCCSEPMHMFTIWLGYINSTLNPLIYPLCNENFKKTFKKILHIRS
# UniProt P28564: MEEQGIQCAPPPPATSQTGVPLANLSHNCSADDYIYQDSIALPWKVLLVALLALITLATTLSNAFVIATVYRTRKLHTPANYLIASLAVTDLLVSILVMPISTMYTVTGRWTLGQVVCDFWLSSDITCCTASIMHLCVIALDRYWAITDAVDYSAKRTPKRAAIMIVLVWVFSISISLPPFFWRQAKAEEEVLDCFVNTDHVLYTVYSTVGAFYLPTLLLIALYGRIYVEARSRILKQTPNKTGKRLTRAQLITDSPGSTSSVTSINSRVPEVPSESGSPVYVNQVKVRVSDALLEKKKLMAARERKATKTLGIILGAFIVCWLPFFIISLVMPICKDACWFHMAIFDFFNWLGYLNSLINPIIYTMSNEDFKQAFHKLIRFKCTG
# UniProt P30940: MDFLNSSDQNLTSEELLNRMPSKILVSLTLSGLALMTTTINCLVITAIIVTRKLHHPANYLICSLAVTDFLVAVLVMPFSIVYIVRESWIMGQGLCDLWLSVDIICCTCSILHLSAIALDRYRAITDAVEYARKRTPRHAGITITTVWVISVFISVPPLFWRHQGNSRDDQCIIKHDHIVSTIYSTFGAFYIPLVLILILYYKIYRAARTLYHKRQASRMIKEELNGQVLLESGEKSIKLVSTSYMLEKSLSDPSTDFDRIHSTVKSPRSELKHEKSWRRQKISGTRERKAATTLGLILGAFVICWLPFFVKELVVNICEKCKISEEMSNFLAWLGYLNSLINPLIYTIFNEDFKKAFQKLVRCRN
# UniProt P19327: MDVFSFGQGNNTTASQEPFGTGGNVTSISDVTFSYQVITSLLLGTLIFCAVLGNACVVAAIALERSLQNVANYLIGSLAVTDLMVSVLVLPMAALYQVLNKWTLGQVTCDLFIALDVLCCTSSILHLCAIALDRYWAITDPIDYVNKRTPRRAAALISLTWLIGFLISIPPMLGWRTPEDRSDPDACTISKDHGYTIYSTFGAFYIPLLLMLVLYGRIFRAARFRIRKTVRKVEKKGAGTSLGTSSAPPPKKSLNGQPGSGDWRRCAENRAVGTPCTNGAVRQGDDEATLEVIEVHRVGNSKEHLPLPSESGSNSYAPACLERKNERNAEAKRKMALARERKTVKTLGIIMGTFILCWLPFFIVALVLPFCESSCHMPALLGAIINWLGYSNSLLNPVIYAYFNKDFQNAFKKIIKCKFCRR
# UniProt P28565: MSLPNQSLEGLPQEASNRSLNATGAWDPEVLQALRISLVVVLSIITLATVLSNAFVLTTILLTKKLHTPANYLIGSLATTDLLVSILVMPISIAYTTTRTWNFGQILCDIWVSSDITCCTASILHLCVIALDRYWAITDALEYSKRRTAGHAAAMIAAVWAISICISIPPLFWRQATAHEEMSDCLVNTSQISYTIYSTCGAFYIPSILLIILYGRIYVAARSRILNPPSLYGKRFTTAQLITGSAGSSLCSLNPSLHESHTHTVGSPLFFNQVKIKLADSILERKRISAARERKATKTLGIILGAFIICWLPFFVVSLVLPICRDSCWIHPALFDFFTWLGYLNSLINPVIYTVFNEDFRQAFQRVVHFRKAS
# Legend:
# Histamine H1 receptor = Histamine H1 receptor (Rattus norvegicus, UniProt P31390)
# [1] = target: Serotonin 1 (5-HT1) receptor (Rattus norvegicus, UniProt P28564+P30940+P19327+P28565); assay: Binding affinity towards 5-hydroxytryptamine 1 receptor was measured using radioligand ([3H]5-HT) binding assay; type: protein assay
SMILES,IC50 (Histamine H1 receptor) [nM],IC50 [1] [nM]
CSc1ccc2c(c1)N(CCC1CCCCN1C)c1ccccc1S2 (configuration not stated) [THIORIDAZINE],99,–
Cl.O=C1CC2(CCCC2)CC(=O)N1CCCCN1CCN(c2nsc3ccccc23)CC1 [TIOSPIRONE HYDROCHLORIDE],–,13
